Cyclic peptide permeability, from CycPeptMPDB

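The data file gives no further conditions (lipid, pH, time, direction or concentration), and values from different papers need not be comparable. The list need not hold all peptides of the study. Entries at the database's floor value (log10 P of -10) are not listed.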

PAMPA measures passive passage through an artificial lipid membrane.
P is given in units of 10^-6 cm/s (from log10 values with two decimals); larger means faster passage.

Listed for CCCC[C@@H]1NC(=O)[C@H](CC(C)C)N(C)C(=O)CN(CC2CCOCC2)C(=O)[C@H](C)NC(=O)CN(CCCCc2ccccc2)C(=O)[C@H]2CCCN2C1=O: PAMPA 5 × 10^-6 cm/s.
Listed for CCCCCN1CC(=O)N(C)[C@@H](CC(C)C)C(=O)N[C@@H](CCCC)C(=O)N2CCC[C@@H]2C(=O)N(Cc2ccc(Cl)cc2)CC(=O)N[C@@H](C)C1=O: PAMPA 5.4 × 10^-6 cm/s.
Listed for CCCC[C@@H]1NC(=O)[C@H](CC(C)C)N(C)C(=O)CN(CC2CCOCC2)C(=O)[C@H](Cc2ccc3ccccc3c2)NC(=O)CN(CCCCc2ccccc2)C(=O)[C@H]2CCCN2C1=O: PAMPA 0.025 × 10^-6 cm/s.
Listed for CCCC[C@@H]1NC(=O)[C@H](CC(C)C)N(C)C(=O)CN(CCCc2ccccc2)C(=O)[C@H](Cc2ccccc2)NC(=O)CN(CCCOC(C)C)C(=O)[C@H]2CCCN2C1=O: PAMPA 1.4 × 10^-6 cm/s.
Listed for CCCC[C@@H]1NC(=O)[C@H](CC(C)C)N(C)C(=O)CN(CCOC)C(=O)[C@H](Cc2ccccc2)NC(=O)CN(CCC)C(=O)[C@H]2CCCN2C1=O: PAMPA 7.6 × 10^-6 cm/s.
Listed for CCCC[C@@H]1NC(=O)[C@H](CC(C)C)N(C)C(=O)CN(Cc2ccccc2)C(=O)[C@H](CC(C)C)NC(=O)CN(Cc2ccc3c(c2)OCO3)C(=O)[C@H]2CCCN2C1=O: PAMPA 0.21 × 10^-6 cm/s.
Listed for CCCC[C@@H]1NC(=O)[C@H](CC(C)C)N(C)C(=O)CN(Cc2ccccc2)C(=O)[C@H](Cc2ccccc2)NC(=O)CN(CCC)C(=O)[C@H]2CCCN2C1=O: PAMPA 2.3 × 10^-6 cm/s.
Listed for CCCC[C@@H]1NC(=O)[C@H](CC(C)C)N(C)C(=O)CN(CC2CCCCC2)C(=O)[C@H](CC(C)C)NC(=O)CN(CCCCc2ccccc2)C(=O)[C@H]2CCCN2C1=O: PAMPA 0.0071 × 10^-6 cm/s.
Listed for CCCC[C@@H]1NC(=O)[C@H](CC(C)C)N(C)C(=O)CN(CCOc2ccccc2)C(=O)[C@H](CC(C)C)NC(=O)CN(CCCOC(C)C)C(=O)[C@H]2CCCN2C1=O: PAMPA 3.2 × 10^-6 cm/s.
Listed for CCCC[C@@H]1NC(=O)[C@H](CC(C)C)N(C)C(=O)CN(CCc2cccnc2)C(=O)[C@H](Cc2ccc3ccccc3c2)NC(=O)CN(Cc2cc(CC(C)C)on2)C(=O)[C@H]2CCCN2C1=O: PAMPA 0.12 × 10^-6 cm/s.
Listed for CCCCCN1CC(=O)N(C)[C@@H](CC(C)C)C(=O)N[C@@H](CCCC)C(=O)N2CCC[C@@H]2C(=O)N(Cc2ccccc2Cn2cccn2)CC(=O)N[C@@H](C)C1=O: PAMPA 8.3 × 10^-6 cm/s.
Listed for CCCC[C@@H]1NC(=O)[C@H](CC(C)C)N(C)C(=O)CN(CCOc2ccccc2)C(=O)[C@H](Cc2ccc3ccccc3c2)NC(=O)CN(Cc2cc(CC(C)C)on2)C(=O)[C@H]2CCCN2C1=O: PAMPA 0.0054 × 10^-6 cm/s.
Listed for CCCC[C@@H]1NC(=O)[C@H](CC(C)C)N(C)C(=O)CN(CC2CCOCC2)C(=O)[C@H](CC(C)C)NC(=O)CN(CCCCc2ccccc2)C(=O)[C@H]2CCCN2C1=O: PAMPA 4.4 × 10^-6 cm/s.
Listed for CCCC[C@@H]1NC(=O)[C@H](CC(C)C)N(C)C(=O)CN(CCc2cccnc2)C(=O)[C@H](Cc2ccc3ccccc3c2)NC(=O)CN(CCCCc2ccccc2)C(=O)[C@H]2CCCN2C1=O: PAMPA 0.024 × 10^-6 cm/s.
Listed for CCCC[C@@H]1NC(=O)[C@H](CC(C)C)N(C)C(=O)CN(Cc2ccccc2)C(=O)[C@H](Cc2ccccc2)NC(=O)CN(Cc2ccc(Cl)cc2)C(=O)[C@H]2CCCN2C1=O: PAMPA 0.0078 × 10^-6 cm/s.

Excerpt, the opening 2 entries:

{"smiles": "CCCC[C@@H]1NC(=O)[C@H](CC(C)C)N(C)C(=O)CN(CC2CCOCC2)C(=O)[C@H](C)NC(=O)CN(CCCCc2ccccc2)C(=O)[C@H]2CCCN2C1=O", "PAMPA (10^-6 cm/s)": "5"}
{"smiles": "CCCCCN1CC(=O)N(C)[C@@H](CC(C)C)C(=O)N[C@@H](CCCC)C(=O)N2CCC[C@@H]2C(=O)N(Cc2ccc(Cl)cc2)CC(=O)N[C@@H](C)C1=O", "PAMPA (10^-6 cm/s)": "5.4"}

Data: CycPeptMPDB; original report Furukawa et al. 2016, doi:10.1021/acs.jmedchem.6b01246.